Tested on: acetylation level of α-tubulin in HCT116 cells
Experiment: Assay on acetylation level of α-tubulin, HCT116 cells
Settings: read-out: EC50 (acetylation level of α-tubulin), 6 h

O=S1(=O)c2cc(-c3nnc(C(F)F)o3)ccc2CN1C(c1ccccn1)C(O)c1ccccn1 (single isomer, unassigned) [70i-B-B]
EC50: 927 nM

From patent publication US20250257060A1, “OXADIAZOLE COMPOUND, PHARMACEUTICAL COMPOSITION COMPRISING SAME, AND USE THEREOF” (SUZHOU GENHOUSE BIO CO., LTD., priority 2022, published 2025)
